Test results from patent US20170157260A1, “Glycosylated Polypeptide and Drug Composition Containing said Polypeptide” (Glytech, Inc., priority 2011, published 2017).
Read-outs that look alike come from different tables or passages of the source.

Sequences of proteins named here, by UniProt entry; tags and fusion partners are left off. A change or cut given only in a name is not applied to a line headed by its entry.
UniProt P31391: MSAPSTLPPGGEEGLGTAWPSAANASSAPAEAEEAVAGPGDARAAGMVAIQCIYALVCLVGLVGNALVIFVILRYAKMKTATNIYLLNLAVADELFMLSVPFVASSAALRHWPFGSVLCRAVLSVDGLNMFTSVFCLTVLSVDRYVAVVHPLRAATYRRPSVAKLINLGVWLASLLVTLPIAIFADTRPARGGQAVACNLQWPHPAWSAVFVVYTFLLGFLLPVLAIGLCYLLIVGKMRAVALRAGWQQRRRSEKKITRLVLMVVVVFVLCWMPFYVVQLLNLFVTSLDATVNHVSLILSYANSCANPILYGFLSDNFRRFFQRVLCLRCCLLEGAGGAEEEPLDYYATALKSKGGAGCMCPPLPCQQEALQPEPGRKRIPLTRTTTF
UniProt P32745: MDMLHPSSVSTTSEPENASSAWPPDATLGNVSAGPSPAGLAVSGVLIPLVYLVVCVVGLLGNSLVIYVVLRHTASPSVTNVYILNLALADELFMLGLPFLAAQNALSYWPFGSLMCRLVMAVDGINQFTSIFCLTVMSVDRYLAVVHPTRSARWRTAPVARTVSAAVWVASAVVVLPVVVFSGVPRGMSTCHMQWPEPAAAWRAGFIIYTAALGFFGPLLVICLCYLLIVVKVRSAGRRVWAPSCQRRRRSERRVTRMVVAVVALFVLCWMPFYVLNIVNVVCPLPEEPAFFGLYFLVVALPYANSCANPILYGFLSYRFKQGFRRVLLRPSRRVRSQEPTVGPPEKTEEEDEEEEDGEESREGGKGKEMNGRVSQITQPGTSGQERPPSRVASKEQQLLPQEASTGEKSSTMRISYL
UniProt P30874: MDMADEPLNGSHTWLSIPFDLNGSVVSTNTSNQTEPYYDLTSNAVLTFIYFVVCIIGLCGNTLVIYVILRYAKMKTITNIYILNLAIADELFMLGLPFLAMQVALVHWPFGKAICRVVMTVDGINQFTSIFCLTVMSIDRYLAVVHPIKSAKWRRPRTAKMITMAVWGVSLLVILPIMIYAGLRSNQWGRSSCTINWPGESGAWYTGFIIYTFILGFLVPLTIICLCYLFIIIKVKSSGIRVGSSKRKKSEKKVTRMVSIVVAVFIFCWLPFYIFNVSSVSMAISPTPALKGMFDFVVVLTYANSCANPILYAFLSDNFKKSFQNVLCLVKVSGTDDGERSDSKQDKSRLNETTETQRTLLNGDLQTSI
UniProt P35346: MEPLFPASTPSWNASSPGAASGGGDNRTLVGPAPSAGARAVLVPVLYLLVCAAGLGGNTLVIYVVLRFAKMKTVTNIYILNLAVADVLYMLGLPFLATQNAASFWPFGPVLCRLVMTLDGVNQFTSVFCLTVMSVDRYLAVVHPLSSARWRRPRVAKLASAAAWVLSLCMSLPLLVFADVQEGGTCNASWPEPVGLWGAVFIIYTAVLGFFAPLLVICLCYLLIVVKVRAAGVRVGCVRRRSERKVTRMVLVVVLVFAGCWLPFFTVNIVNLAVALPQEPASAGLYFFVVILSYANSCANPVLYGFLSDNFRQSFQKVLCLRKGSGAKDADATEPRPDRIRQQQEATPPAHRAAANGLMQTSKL
UniProt P30872: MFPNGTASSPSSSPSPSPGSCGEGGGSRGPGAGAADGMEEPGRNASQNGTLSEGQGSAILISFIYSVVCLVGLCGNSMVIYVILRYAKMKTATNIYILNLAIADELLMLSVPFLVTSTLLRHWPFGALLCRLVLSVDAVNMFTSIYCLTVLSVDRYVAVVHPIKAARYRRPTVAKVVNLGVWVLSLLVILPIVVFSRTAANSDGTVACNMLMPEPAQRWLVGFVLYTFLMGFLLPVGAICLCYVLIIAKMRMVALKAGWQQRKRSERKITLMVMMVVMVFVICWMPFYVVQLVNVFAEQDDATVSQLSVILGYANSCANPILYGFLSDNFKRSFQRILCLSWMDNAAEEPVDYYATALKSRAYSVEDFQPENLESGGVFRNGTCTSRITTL

Columns and labels:
SSTR4 = SSTR4 (Homo sapiens, UniProt P31391); assay: Agonist activity evaluation (cAMP production suppression), SSTR4 receptor expression cells; format: cell-based
SSTR3 [1] = target: T1, SSTR3 (Homo sapiens, UniProt P32745); assay: Competitive binding assay, SSTR3; details: Table 3B, Example 67-2, competitive binding assay; for IC50: read-out: SSTR3 IC50; for Ki: read-out: SSTR3 Ki
SSTR2 [2] = target: T2, SSTR2 (Homo sapiens, UniProt P30874); assay: Competitive binding assay, SSTR2; details: Table 3B, Example 67-2, competitive binding assay; for IC50: read-out: SSTR2 IC50; for Ki: read-out: SSTR2 Ki
SSTR3 [3] = target: T1, SSTR3; assay: Agonist activity evaluation (cAMP production suppression), SSTR3 receptor expression cells; format: cell-based; parameters: host or cells: CHO-K1 cells; details: Table 3E, Example 67-4; read-out: IC50 of the agonist activity, SSTR3
[4] = Pharmacokinetics test with rats (intravenous and subcutaneous administration); details: rats; for extension of t1/2 compared to the non-glycosylated form (SRIF28 or SRIF14) / increase of AUC compared to the non-glycosylated form (SRIF28 or SRIF14): administered intravenously; for BA: subcutaneous vs intravenous
SSTR5 [5] = target: T3, SSTR5 (Homo sapiens, UniProt P35346); assay: Competitive binding assay, SSTR5; details: Table 3B, Example 67-2, competitive binding assay; for IC50: read-out: SSTR5 IC50; for Ki: read-out: SSTR5 Ki
SSTR2 [6] = target: T2, SSTR2; assay: Agonist activity evaluation (cAMP production suppression), SSTR2 receptor expression cells; format: cell-based; parameters: host or cells: CHO-K1 cells; details: Table 3E, Example 67-4; read-out: IC50 of the agonist activity, SSTR2
SSTR1 [7] = target: T4, SSTR1 (Homo sapiens, UniProt P30872)
SSTR3 [8] = target: T1, SSTR3
SSTR2 [9] = target: T2, SSTR2
SSTR5 [10] = target: T3, SSTR5
SSTR1 [11] = target: T4, SSTR1; assay: Competitive binding assay, SSTR1; details: Table 3B, Example 67-2, competitive binding assay; for IC50: read-out: SSTR1 IC50; for Ki: read-out: SSTR1 Ki
SSTR5 [12] = target: T3, SSTR5; assay: Agonist activity evaluation (cAMP production suppression), SSTR5 receptor expression cells; format: cell-based; parameters: host or cells: CHO-K1 cells; details: Table 3E, Example 67-4; read-out: IC50 of the agonist activity, SSTR5
[13] = tested on: growth hormone (GH) production; assay: GH production suppression test with rats; format: in vivo; details: Table 8 (Example 87), vehicle 1012
[14] = Table 3E, Example 67-4; read-out: IC50 of the agonist activity, SSTR4
[15] = read-out: IC50 of the agonist activity, SSTR4; Table 3E, Example 67-4
[16] = Table 5A (Examples 69-72), spread in the line below
[17] = BA=(AUC(sc)/Dose(sc))/(AUC(iv)/Dose(iv)), Table 5A
[18] = Examples 69-72 (text on Table 5A)
[19] = Table 5E, intravenous, unit as in Table 4
[20] = Table 5E, subcutaneous, unit as in Table 4

| Substance | IC50 (SSTR4; [14]) [pM] | Ki (SSTR3 [1]) [pM] | IC50 (SSTR2 [2]) [pM] | Intravenous administration AUC ([4]; Tables 5B-5F (Examples 73-84)) [nM·min] | Intravenous administration C0 ([4]; Tables 5B-5F (Examples 73-84)) [nM] | Intravenous administration MRT ([4]; Tables 5B-5F (Examples 73-84)) [min] | Intravenous administration T1/2 ([4]; Tables 5B-5F (Examples 73-84)) [min] | Subcutaneous administration AUC ([4]; Tables 5B-5F (Examples 73-84)) [nM·min] | Subcutaneous administration Cmax ([4]; Tables 5B-5F (Examples 73-84)) [nM] | Subcutaneous administration MRT ([4]; Tables 5B-5F (Examples 73-84)) [min] | Subcutaneous administration T1/2 ([4]; Tables 5B-5F (Examples 73-84)) [min] | BA ([4]; Tables 5B-5F (Examples 73-84)) [%] | IC50 (SSTR1 [7]) [pM] | IC50 (SSTR3 [8]) [pM] | IC50 (SSTR2 [9]) [pM] | Ki (SSTR2 [9]) [pM] | IC50 (SSTR5 [10]) [pM] | Ki (SSTR1 [7]) [pM] | Ki (SSTR3 [8]) [pM] | Ki (SSTR5 [10]) [pM] | other results |
| --- | --- | --- | --- | --- | --- | --- | --- | --- | --- | --- | --- | --- | --- | --- | --- | --- | --- | --- | --- | --- | --- |
| 2C(disialo)-R-K-SRIF14 [Example 48] | 1100 | 3330 | 5350 | 5041 | 704 | 24.1 | 31.7 | 3310 | 36.7 | 73.4 | 47.7 | 66 | – | – | – | – | – | – | – | – | IC50 (SSTR3 [1]): 9740 pM; Ki (SSTR2 [2]): 2840 pM; IC50 (SSTR3 [3]): 550 pM; extension of t1/2 compared to the non-glycosylated form (SRIF28 or SRIF14) [4]: 63 folds; increase of AUC compared to the non-glycosylated form (SRIF28 or SRIF14) [4]: 42 folds; IC50 (SSTR5 [5]): 6160 pM; Ki (SSTR5 [5]): 3480 pM; IC50 (SSTR2 [6]): 150 pM |
| C(disialo)-C12 linker-SRIF14 [Example 19] | – | – | – | 1686 | 500 | 7.60 | 11.0 | 345 | 13.4 | 22.0 | 14.4 | 21 | 15500 | 3120 | 502 | 267 | 2290 | – | – | – | IC50 (SSTR4; [15]): 110 pM |
| C(disialo)-K-SRIF14 [Example 40] | 59 | 1210 | 1970 | 5277 | 646 | 19.4 | 18.8 | 2446 | 40.5 | 43.7 | 26.4 | 46 | – | – | – | – | – | – | – | – | IC50 (SSTR3 [1]): 3550 pM; Ki (SSTR2 [2]): 1050 pM; IC50 (SSTR3 [3]): 100 pM; IC50 (SSTR1 [11]): 20700 pM; Ki (SSTR1 [11]): 17200 pM; IC50 (SSTR5 [5]): 3520 pM; Ki (SSTR5 [5]): 1990 pM; IC50 (SSTR2 [6]): 19 pM |
| C(disialo)-SRIF14 [Example 17] | 100 | – | – | – | – | – | – | – | – | – | – | 66 | 32300 | 2620 | – | 179 | – | 26700 | 1580 | – | IC50 (SSTR3 [3]): 180 pM; IC50 (SSTR5 [12]): 230 pM |
| K14C(disialo)-SRIF28 [Example 6] | – | – | – | 6278 | 884 | 20.0 | 20.4 | 3945 | 57.5 | 55.1 | 35.1 | 62 | 13800 | 2590 | 481 | 256 | 4010 | 11400 | 887 | 2270 | GH ([13]; dose 10 nmol/kg): 55 ng/mL |
| N5C(disialo)-SRIF28 [Example 2] | – | – | – | – | – | – | – | – | – | – | – | – | 1100 | 278 | 94.5 | 50.2 | 458 | 912 | 95 | 259 | GH ([13]; dose 1 nmol/kg): 969 ng/mL; GH ([13]; dose 10 nmol/kg): 12 ng/mL; Intravenous administration AUC [4, 16]: 4421 nM·min; Intravenous administration C0 [4, 16]: 496 nM; Intravenous administration MRT [4, 16]: 22.9 min; Intravenous administration t1/2 [4, 16]: 20.1 min; Subcutaneous administration AUC [4, 16]: 2392 nM·min; Subcutaneous administration Cmax [4, 16]: 32.4 nM; Subcutaneous administration MRT [4, 16]: 51.9 min; Subcutaneous administration t1/2 [4, 16]: 28.1 min; BA [4, 17]: 54% |
| N19C(diMan)-SRIF28 [Example 52] | 110 | 530 | 1170 | – | – | – | – | – | – | – | – | – | – | – | – | – | – | – | – | – | Ki (SSTR2 [2]): 620 pM; IC50 (SSTR1 [11]): 6580 pM; Ki (SSTR1 [11]): 5440 pM; IC50 (SSTR5 [5]): 2940 pM; Ki (SSTR5 [5]): 1660 pM |
| R13C(disialo)-SRIF28 [Example 5] | – | – | – | 4926 | 481 | 22.8 | 20.3 | – | 65.9 | 55.9 | 35.4 | 78 | 15400 | 2870 | 310 | 165 | 3280 | 13600 | 981 | 1850 | GH ([13]; dose 10 nmol/kg): 136 ng/mL |
| S1-2C(disialo)-SRIF28 [Example 20] | 140 | – | – | 5804 | 950 | 23.0 | 28.2 | 3091 | 34.6 | 65.3 | 40.8 | 53 | 18800 | 1280 | 338 | 179 | 607 | 15500 | 439 | 343 | IC50 (SSTR3 [3]): 550 pM; IC50 (SSTR5 [12]): 220 pM; extension of t1/2 compared to the non-glycosylated form (SRIF28 or SRIF14) [4]: 21 folds; increase of AUC compared to the non-glycosylated form (SRIF28 or SRIF14) [4]: 12 folds; Intravenous administration AUC [4, 16]: 7306 nM·min; Intravenous administration C0 [4, 16]: 1382 nM; Intravenous administration MRT [4, 16]: 23.3 min; Intravenous administration t1/2 [4, 16]: 28.8 min; Subcutaneous administration AUC [4, 16]: 4046 nM·min; Subcutaneous administration Cmax [4, 16]: 46.3 nM; Subcutaneous administration MRT [4, 16]: 67.9 min; Subcutaneous administration t1/2 [4, 16]: 40.9 min; BA [4, 17]: 55%; AUC for intravenous administration [4, 18]: 7306 nM·min; bioavailability (BA), subcutaneous administration [4, 18]: 55% |
| S1-3C(asialo)-SRIF28 [Example 29] | 100 | – | – | – | – | – | – | – | – | – | – | – | 4210 | 581 | 97.8 | 51.9 | 369 | 3490 | 199 | 209 | C0, intravenous administration ([4]; Table 5E, intravenous, extrapolation, unit as in Table 4): 1147 nM; AUC, intravenous administration [4, 19]: 2733 nM·min; MRT, intravenous administration [4, 19]: 6.50 min; T1/2, intravenous administration [4, 19]: 6.60 min; AUC, subcutaneous administration [4, 20]: 885 nM·min; Cmax, subcutaneous administration [4, 20]: 15.0 nM; MRT, subcutaneous administration [4, 20]: 42.1 min; T1/2, subcutaneous administration [4, 20]: 26.4 min; BA (bioavailability), subcutaneous administration ([4]; Table 5E, formula of b926): 32%; extension of t1/2 compared to the non-glycosylated form (SRIF28 or SRIF14) [4]: 5 folds; increase of AUC compared to the non-glycosylated form (SRIF28 or SRIF14) [4]: 6 folds; IC50 (SSTR2 [6]): 190 pM |
| S1C(Asn(disialo))-SRIF28 [Example 63] | – | 1910 | 610 | 6488 | 365 | 35.9 | 27.9 | 2935 | 33.9 | 55.3 | 34.0 | 45 | – | – | – | – | – | – | – | – | IC50 (SSTR4; [15]): 130 pM; IC50 (SSTR3 [1]): 5570 pM; Ki (SSTR2 [2]): 330 pM; Ki (SSTR1 [11]): 13000 pM; IC50 (SSTR5 [5]): 1610 pM; Ki (SSTR5 [5]): 910 pM |
